Earlier results, collected in PMC11988861, “Step Enzymatic Hydrolysis and In Silico Screening-Assisted Preparation of Bioactive Peptides from Abalone” (Foods, 2025).

Sequences of proteins named here, by UniProt entry; tags and fusion partners are left off. Residues count along the entry.
UniProt P12821, 30-1306 limits assumed: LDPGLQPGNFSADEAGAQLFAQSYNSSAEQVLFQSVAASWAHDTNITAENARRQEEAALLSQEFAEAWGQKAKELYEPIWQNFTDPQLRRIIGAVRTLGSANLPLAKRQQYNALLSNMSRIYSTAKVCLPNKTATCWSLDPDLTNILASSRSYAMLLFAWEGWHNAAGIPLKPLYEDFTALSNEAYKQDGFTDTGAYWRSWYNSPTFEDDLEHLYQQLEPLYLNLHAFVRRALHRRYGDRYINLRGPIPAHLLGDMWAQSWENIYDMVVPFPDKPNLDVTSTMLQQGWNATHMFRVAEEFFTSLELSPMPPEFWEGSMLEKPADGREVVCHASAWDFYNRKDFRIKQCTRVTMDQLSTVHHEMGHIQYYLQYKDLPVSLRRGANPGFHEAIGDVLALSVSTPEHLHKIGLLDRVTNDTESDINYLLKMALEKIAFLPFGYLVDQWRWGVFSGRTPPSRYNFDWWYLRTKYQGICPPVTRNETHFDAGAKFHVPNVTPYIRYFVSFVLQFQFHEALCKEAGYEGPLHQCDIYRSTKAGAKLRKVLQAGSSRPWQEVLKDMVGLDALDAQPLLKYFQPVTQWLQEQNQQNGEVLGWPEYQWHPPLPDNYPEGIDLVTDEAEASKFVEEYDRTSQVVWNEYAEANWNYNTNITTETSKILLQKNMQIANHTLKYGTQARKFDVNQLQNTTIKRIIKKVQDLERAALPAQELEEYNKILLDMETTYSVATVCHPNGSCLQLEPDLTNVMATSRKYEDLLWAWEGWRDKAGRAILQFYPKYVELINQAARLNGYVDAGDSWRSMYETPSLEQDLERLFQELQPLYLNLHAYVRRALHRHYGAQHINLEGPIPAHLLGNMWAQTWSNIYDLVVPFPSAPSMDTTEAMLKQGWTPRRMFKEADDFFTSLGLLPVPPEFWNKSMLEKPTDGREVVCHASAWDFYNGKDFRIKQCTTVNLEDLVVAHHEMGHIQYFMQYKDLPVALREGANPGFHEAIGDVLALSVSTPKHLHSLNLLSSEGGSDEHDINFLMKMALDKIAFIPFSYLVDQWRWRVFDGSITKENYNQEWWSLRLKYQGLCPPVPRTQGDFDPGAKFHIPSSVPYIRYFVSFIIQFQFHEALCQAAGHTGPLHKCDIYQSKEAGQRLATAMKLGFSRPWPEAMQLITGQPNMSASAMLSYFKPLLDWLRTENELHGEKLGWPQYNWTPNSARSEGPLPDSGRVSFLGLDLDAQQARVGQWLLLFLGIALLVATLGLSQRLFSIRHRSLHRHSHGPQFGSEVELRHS

Molecular target: ACE (Homo sapiens, UniProt P12821)
Conditions: literature ACEi peptides from skipjack tuna muscle
Text: Table 5 Summary of properties of 14 peptides. | column: ACEi IC50/ (mg·mL^−1)

SMILES: N[C@@H](CO)C(=O)N1CCC[C@H]1C(=O)O
- ACEi IC50: 60 µg/mL
